Reference: article PMC4660058

What was measured:
[1] = biological target: formin mDia1-bound actin filament barbed end (BF), set-up #1 (rabbit | human) (UniProt P68135); assay: microfluidics-assisted single-filament fluorescence microscopy (kinetics of elongation changes); set-up #1: formin-bound barbed ends (BF) exposed to CP + PA (BF+C→BFC), then PA alone (constants 'from BFC'); unlabelled formin; F-buffer pH 7.8, 50 mM KCl, room temperature
[2] = biological target: formin FMNL2-bound actin filament barbed end (rabbit | not stated) (UniProt P68135); assay: microfluidics-assisted single-filament fluorescence microscopy (kinetics of elongation changes); set-up #1: CP-capped barbed ends (BC) exposed to formin without PA for T_(expo) (BC+F→BCF), then PA alone (constants 'from BCF'); k′+F from a fit, not measured directly; F-buffer pH 7.8, 50 mM KCl, room temperature
[3] = biological target: formin mDia1-bound actin filament barbed end (BF), set-up #1 (rabbit | human) (UniProt P68135); assay: as above
[4] = biological target: actin filament barbed end bound to surface-anchored biotin-SNAP-mDia1 (BF), set-up #2 (rabbit | human) (UniProt P68135); assay: microfluidics-assisted single-filament fluorescence microscopy (kinetics of elongation changes); set-up #2: biotin-SNAP-mDia1 anchored on neutravidin coverslip, insertional barbed-end assembly; exposed to CP + unlabelled PA, then PA alone; detachment = BFC→BC+F, resumed growth = BFC→BF+C; F-buffer pH 7.8, 50 mM KCl, room temperature
[5] = biological target: actin filament free barbed end (B) (rabbit) (UniProt P68135); assay: microfluidics-assisted single-filament fluorescence microscopy (kinetics of elongation changes); set-up #1: filaments from surface-anchored spectrin–actin seeds, free barbed ends exposed to flows of CP or formin with profilin-actin (1 μM actin, 4 μM profilin); off-rates in PA alone; F-buffer pH 7.8, 50 mM KCl, room temperature; KD from the rate constants

Question: What does the source list for “capping protein (CP), αβ heterodimer (from UniProt P47753 1-286; P47757 1-277) (complex)”?
Answer: Kd [1]: 9 to 30 nM; koff [1]: 0.0018 s⁻¹; kon [1]: 210000 M⁻¹ s⁻¹; koff [2]: 0.0047 s⁻¹; koff [3]: 0.0062 s⁻¹; Kd [4]: 25 nM; koff [4]: 0.00202 s⁻¹; kon [4]: 80000 M⁻¹ s⁻¹; Kd [5]: 0.016 nM; koff [5]: 0.0002 s⁻¹; kon [5]: 1.28e+07 M⁻¹ s⁻¹
